# AlphaSeq binding of Ab-91 heavy chain variants to a spike HR2 peptide

Source: Engelhart et al. 2022 (doi:10.1038/s41597-022-01779-4), MIT Lincoln Laboratory and A-Alpha Bio; data file from the FLAb repository.

Binding partner: SARS-CoV-2 spike HR2 peptide, sequence PDVDLGDISGINAS.

Parent: Ab-91, a human scFv built as VL, a (GGGGS)3 linker, VH. Only the CDRs of the heavy chain vary.
VL: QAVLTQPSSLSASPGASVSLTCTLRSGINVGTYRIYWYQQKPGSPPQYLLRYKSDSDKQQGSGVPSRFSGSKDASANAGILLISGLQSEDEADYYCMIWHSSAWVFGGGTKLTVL
VH: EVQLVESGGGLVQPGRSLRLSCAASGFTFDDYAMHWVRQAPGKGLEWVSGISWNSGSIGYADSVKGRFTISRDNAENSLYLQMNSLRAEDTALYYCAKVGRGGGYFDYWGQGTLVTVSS

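The starting antibody came from a phage panning campaign against this peptide. The library (AAYL51) carries one to three amino acid substitutions per variant, with no insertions or deletions. Affinity was read by AlphaSeq, a pooled yeast mating assay with surface-displayed partners. Binding brings cells together so that they mate, and sequencing counts the barcode pairs among the diploids. The ratio of observed to expected reads was calibrated, replicate by replicate, on BCL2-family standards whose Kd was known from biolayer interferometry. Mating was done three times.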

The parent's heavy chain CDRs are GFTFDDYAMH, GISWNSGSIGYADSVK, VGRGGGYFDY; each variant's own CDRs replace them letter for letter. Numbers give log10(Kd / nM), so 0 is 1 nM and 3 is 1 µM. Smaller is tighter. Where no diploid with the target was found in that replicate, the entry reads "n.d.": below detection, most likely a poor binder, though not proof of it. Three control strains display no target. For library AAYL51, 21% of the pairings with them gave a signal, with a median of 4.54 and one signal in twenty below 3.26, so weak values seen in few replicates may be background. For each scFv, signals with the empty controls are counted beside the result, with their mean in brackets. For reference, the parent read 1.86 as the reference entry and 0.88 as a member of this library.

CDR-H1	CDR-H2	CDR-H3	log10 Kd (nM) by replicate	control signals
GFTFVDYAMH	GISWNSGSIGYADSDK	VCRGGGYFDY	5.34 n.d. n.d.	1/9 (4.15)
PFTFDDYAMH	GISWNSGSIGYADSVK	VGRGGGYFDI	3.29 n.d. n.d.	1/9 (3.47)
GFTGDDYYMH	GISWNSGSIGYADSVK	AGRGGGYFDY	n.d. 4.97 n.d.	2/9 (4.81)
GFTTDDYAMH	GISWNSGNIGYADSVW	VGRGGGYFDY	n.d. n.d. n.d.	2/9 (5.33)
GFTFDCYAMH	GISWNSGSIGTADVVK	VGRGGGYFDY	4.42 n.d. n.d.	1/9 (5.77)
GFTFDDIAMH	GISWNVGSIGYADSVR	VGRGGGYFDY	3.88 n.d. n.d.	1/9 (4.41)
GFTFDDYAQH	GISWNSGSIGYAPSVK	VGRGGGYNDY	5.41 4.86 5.34	7/9 (4.91)
GFTFDDYAMH	GISWNSGSIGYADSVK	VGIKHGYFDY	n.d. n.d. n.d.	0/9
GFTFDLYAMH	GISWSSPSIGYADSVK	VGRGGGYFDY	5.38 n.d. 4.80	2/9 (4.50)
MCTFDDYAMH	GISWNSGSIGYADSVK	VGRGGGAFDY	2.05 2.07 1.79	9/9 (4.89)
GFTFDDFAMH	GISWNSYQIGYADSVK	VGRGGGYFDY	2.31 2.29 1.77	4/9 (5.18)
GFTFADYAMH	GISWNSHSIGYADNVK	VGRGGGYFDY	1.28 1.17 0.64	8/9 (4.58)
GFTFDDYAMH	GKSWNSGSIGYADKVK	VGRAGGYFDY	n.d. n.d. n.d.	1/9 (3.71)
GFTFDDYAMH	GISWNSGSIGYRDSVK	WGRGGGYFDY	n.d. n.d. n.d.	2/9 (4.11)
GFTFDDYAKH	GISWNSGSIGYADSVG	VGRGGGYFCY	4.63 6.72 5.18	6/9 (5.52)
LFTFDDYAMH	GISWNSGSIGYADSNK	CGRGGGYFDY	n.d. n.d. n.d.	3/9 (5.41)
GFTRGDYAMH	GISWNSGSIGYADSVP	VGRGGGYFDY	n.d. n.d. 3.89	3/9 (3.99)
GFTFDDYAMH	GIRWNSGMIGYADSVK	VGRGGGYFKY	n.d. n.d. n.d.	1/9 (3.94)
GFTFDDYAMV	GISWNSGSIGYADFVK	VGRGGGYFVY	n.d. n.d. n.d.	1/9 (4.43)
GFTFDDYAMH	GISGNSGSMGYADSVK	VGRGGGYFDY	n.d. n.d. n.d.	1/9 (3.40)
GFTFDDYAYH	GISWNSGSIGYADSVY	VGKGGGYFDY	1.69 1.96 1.31	2/9 (5.02)
GFTHKDYAMH	GISWNSGSIIYADSVK	VGRGGGYFDY	n.d. n.d. n.d.	3/9 (3.80)
GFPCDDYAMH	GISWNSGSIGWADSVK	VGRGGGYFDY	4.38 n.d. n.d.	1/9 (4.00)
GFTFNDYAMH	GISQNSGSIGYADSVK	QGRGGGYFDY	n.d. 4.47 5.60	6/9 (5.13)
GFTFDDYRMH	GISWNSGSIGYPDSVK	VGRGGGYFDY	3.17 3.29 n.d.	1/9 (3.49)
GFTFDDYAMH	AISWNSGSIGRANSVK	VGRGGGYFDY	n.d. n.d. 4.35	5/9 (4.24)
GFPFDDYAMH	GISWNSGSIGNADSVK	VGRGPGYFDY	n.d. n.d. n.d.	0/9
GATFDDYAMH	GISWNSGSIGYADSDK	VGRGGGYFDV	n.d. n.d. n.d.	0/9
GFTMDDYAMH	GISWNEGSIGYADSVK	VGRGQGYFDY	1.75 1.94 1.84	2/9 (4.42)
GGTFDDYAMH	GISWNSGSIGYADSVK	VGRGGPYFDP	n.d. n.d. n.d.	0/9
GFKFDDYAMH	GISWNSGRIGYADSVK	VGRGGGYFDY	n.d. n.d. n.d.	1/9 (3.80)
GFTFDDYAMH	FISWNSGSGGYADSVK	VGRGGIYFDY	4.69 n.d. n.d.	6/9 (4.60)
GFTFDDYAMH	GISWNSGSGGYADQVK	NGRGGGYFDY	3.17 n.d. n.d.	1/9 (4.06)
GFTFDDQAMH	GISWNSGSIGYADSVY	VGRGGGYFDW	n.d. n.d. n.d.	0/9
GFTFDDYAWH	LISWNSGSIGYADSVQ	VGRGGGYFDY	n.d. n.d. n.d.	0/9
GFTFDDYAMH	GISWNSGSIKYADSVK	VGDGDGYFDY	n.d. n.d. n.d.	0/9

Top 3 of the variants detected in all replicates, tightest first:

CDR-H1	CDR-H2	CDR-H3	log10 Kd (nM) by replicate	control signals
GFTFADYAMH	GISWNSHSIGYADNVK	VGRGGGYFDY	1.28 1.17 0.64	8/9 (4.58)
GFTFDDYAYH	GISWNSGSIGYADSVY	VGKGGGYFDY	1.69 1.96 1.31	2/9 (5.02)
GFTMDDYAMH	GISWNEGSIGYADSVK	VGRGQGYFDY	1.75 1.94 1.84	2/9 (4.42)